The series in a line: Observed toxicity in C3H/HeN-MTV+ mice at therapeutic dosages. Type of series: in vivo. Conditions: consumed by the experimental mice at therapeutic dosages. An excerpt:
The A-line at 42% represents the level of activity established by the N.C.I. for “significant antitumor activity”. The B-line at about 10% depicts the level representing a “high degree of antitumor activity”.

Data on 1 substance can be found in US6358953B1, “Pterin antineoplastic agents” (priority 1998, dated 2002).

Consider CaCl2(pterin)4, for which the toxicity result is listed as “no observed toxicity”.
